# Results reported in PubChem BioAssay AID1892 (NMMLSC, 2009).
# The list shows a part of the results, in another mix than the full data. Activity calls are given as the source filed them. Cut-off read from the data, not from the text of the source: active = binding response below about 16% or above about 210%; inactive = in between.
# Molecular target: Mitogen-activated protein kinase kinase kinase 2 (Homo sapiens) (UniProt Q9Y2U5)
# Assay: modulators of MEK5 binding to wildtype MEKK2, confirmation, biochemical, single concentration, multiplex bead flow cytometry (AID 1892)
# Conditions: Alexa488-MEK5 binding to MEKK2 WT, at 10 µM, actives lie on both sides
row,SMILES,binding response (% of control)
1,CCC1=CC2Cc3nc4ccc(Cl)cc4c(N)c3C(C1)C2 (configuration not stated),inactive: 140%
2,CN(CCCl)Cc1cc(Cl)c(NC2=NCCN2)c(Cl)c1,inactive: 122%
